Test [1] concerns the target T1, GHRH receptor (Homo sapiens, UniProt Q02643).
T1 construct: Normal human pituitaries were purchased from the National Hormone and Peptide Program; tissue National Hormone and Peptide Program (A. F. Parlow); host or cells: normal human pituitary, membrane fraction
T1 sequence (Q02643 23-423): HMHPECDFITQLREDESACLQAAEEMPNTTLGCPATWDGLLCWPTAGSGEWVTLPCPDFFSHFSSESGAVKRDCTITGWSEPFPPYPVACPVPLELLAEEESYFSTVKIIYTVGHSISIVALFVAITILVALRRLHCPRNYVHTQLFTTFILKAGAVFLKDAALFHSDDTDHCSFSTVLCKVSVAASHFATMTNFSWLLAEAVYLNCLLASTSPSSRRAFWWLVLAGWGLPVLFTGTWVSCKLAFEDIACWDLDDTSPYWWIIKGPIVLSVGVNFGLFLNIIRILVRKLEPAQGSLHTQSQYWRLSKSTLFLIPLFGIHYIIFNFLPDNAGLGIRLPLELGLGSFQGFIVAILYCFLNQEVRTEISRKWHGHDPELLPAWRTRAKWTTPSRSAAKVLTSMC
The test is described as follows: GHRH receptor binding, [His1,125I-Tyr10,Nle27]hGHRH(1-32)NH2 ligand competition, human pituitary membrane homogenates (Table 6). The note with it: human pituitary membranes. How it is done: (§1) Receptor binding assay Ligand competition assay with ^125I-labeled [His^1, Nle^27]hGH-RH(1-32)-NH2 was used to determine the binding affinities of the novel hGH-RH agonists to membrane receptors of rat anterior pituitary cells. The methods used have been described in detail (Halmos G, et al. Receptor 3: 87-97, 1993), here by incorporated by reference. Briefly, radioidonated [His^1, Nle^27]hGH-RH(1-32)-NH2 is prepared by the chloramines-T method. […] Relative affinities were compared to hGH-RH(1-29) and/or analog JI-38 (Izdebski J, et al. Proc. Natl. Acad. Sci. 92: 4872-4876, 1995) and calculated as the ratio of IC50 of the tested peptide to the IC50 of the standard. IC50 is the dose of the tested peptides causing 50% inhibition of specific binding to receptors.
Preparation of human pituitary membrane fraction and receptor binding of GHRH agonists were performed as previously described, by using a sensitive in vitro ligand competition assay based on binding of ^125I-labeled [His^1, Nle^27]hGHRH(1-32)NH2 to human pituitary membrane homogenates. Normal human pituitaries were purchased from the National Hormone and Peptide Program (A. F. Parlow, Los Angeles, County Harbor—UCLA Medical Center, Torrance, Calif.).

For test [2], the target named is T1, GHRH receptor. In words: GHRH receptor binding, 125I-labeled JV-1-42 ligand competition, human pituitary membrane homogenates (Table 5). Conditions: human pituitary membranes. How it is done: as §1
Preparation of human pituitary membrane fraction and receptor binding of GHRH agonists were performed as previously described, by using a sensitive in vitro ligand competition assay based on binding of ^125I-labeled JV-1-42 to human pituitary membrane homogenates. Normal human pituitaries were purchased from the National Hormone and Peptide Program (A. F. Parlow, Los Angeles, County Harbor-UCLA Medical Center, Torrance, Calif.). […]
The final binding affinities were expressed as IC50 values and were calculated by using the LIGAND PC computerized curve-fitting program of Munson and Rodbard as modified by McPherson.

On to hGH-RH(1-29)NH2 [GHRH (1-29)], for which the results for the half-maximal inhibitory concentration (IC50) at GHRH receptor [1] and on GHRH receptor [2] were 5.92 nM and 4.06 nM, respectively.

The record behind these values is patent US9079974B2, “GH-RH analogs with potent agonistic effects” (The University of Miami, priority 2011, dated 2015).
